Assay results from paper PMC5664514 (Proceedings of the National Academy of Sciences of the …, 2017).

Sequences of proteins named here, by UniProt entry; tags and fusion partners are left off. A change or cut given only in a name is not applied to a line headed by its entry.
UniProt Q9UKV0: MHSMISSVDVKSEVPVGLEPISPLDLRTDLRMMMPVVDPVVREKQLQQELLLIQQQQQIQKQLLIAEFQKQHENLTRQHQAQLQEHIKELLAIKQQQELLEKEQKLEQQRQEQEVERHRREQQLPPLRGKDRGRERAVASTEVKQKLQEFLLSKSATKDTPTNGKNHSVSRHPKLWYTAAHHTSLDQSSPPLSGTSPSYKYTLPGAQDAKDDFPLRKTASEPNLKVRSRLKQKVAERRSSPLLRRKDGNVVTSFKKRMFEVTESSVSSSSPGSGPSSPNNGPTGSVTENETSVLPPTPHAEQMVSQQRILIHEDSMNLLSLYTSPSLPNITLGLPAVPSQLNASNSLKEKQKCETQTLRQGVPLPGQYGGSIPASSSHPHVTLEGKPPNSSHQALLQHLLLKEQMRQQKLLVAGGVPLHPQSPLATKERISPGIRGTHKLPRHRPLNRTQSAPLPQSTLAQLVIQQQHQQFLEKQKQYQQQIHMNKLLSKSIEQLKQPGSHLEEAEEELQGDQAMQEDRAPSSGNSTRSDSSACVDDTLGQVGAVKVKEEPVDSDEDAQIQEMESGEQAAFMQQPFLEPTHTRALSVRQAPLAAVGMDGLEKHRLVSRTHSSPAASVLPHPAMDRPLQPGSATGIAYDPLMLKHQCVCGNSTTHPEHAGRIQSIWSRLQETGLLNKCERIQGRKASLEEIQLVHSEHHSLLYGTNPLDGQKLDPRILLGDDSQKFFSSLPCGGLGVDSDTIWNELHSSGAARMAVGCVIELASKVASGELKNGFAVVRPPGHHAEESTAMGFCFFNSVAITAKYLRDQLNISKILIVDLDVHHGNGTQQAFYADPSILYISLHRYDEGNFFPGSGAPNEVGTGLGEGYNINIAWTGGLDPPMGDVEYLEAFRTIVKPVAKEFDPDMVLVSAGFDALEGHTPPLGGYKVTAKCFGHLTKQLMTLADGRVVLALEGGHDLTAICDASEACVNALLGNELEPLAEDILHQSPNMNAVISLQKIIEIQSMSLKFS
UniProt Q9UQL6: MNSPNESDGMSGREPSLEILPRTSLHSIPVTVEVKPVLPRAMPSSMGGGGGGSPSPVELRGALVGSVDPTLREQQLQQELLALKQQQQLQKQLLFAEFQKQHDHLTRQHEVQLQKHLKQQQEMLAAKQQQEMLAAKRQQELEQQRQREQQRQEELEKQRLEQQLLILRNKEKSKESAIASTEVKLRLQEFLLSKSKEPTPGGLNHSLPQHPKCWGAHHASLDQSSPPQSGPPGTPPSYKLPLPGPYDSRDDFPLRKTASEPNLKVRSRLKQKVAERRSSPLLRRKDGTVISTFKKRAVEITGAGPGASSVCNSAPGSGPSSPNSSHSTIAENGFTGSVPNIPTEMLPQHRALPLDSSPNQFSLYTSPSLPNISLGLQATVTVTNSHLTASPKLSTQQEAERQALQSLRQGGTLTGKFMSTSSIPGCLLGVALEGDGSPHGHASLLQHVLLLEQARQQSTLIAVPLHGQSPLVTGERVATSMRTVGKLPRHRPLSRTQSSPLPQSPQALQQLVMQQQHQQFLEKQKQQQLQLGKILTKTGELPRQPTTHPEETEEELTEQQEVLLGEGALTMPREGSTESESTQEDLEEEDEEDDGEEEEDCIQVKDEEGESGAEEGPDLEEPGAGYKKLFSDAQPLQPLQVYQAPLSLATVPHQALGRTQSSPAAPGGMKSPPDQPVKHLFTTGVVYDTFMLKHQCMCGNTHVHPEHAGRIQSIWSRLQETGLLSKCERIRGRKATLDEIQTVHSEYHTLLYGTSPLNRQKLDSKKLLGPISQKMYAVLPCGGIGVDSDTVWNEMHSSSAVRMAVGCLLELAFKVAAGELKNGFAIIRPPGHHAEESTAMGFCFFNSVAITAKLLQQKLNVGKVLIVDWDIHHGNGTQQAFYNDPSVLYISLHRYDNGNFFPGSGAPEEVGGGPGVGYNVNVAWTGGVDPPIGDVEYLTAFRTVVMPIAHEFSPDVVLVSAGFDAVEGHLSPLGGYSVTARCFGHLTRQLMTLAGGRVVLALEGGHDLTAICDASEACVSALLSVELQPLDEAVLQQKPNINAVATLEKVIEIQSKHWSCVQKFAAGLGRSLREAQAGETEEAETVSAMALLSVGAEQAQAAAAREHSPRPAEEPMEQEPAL

What was measured:
HDAC9 = HDAC9 (Homo sapiens, UniProt Q9UKV0); test: HDAC activity assay; details: read-out: IC50 HDAC9; 10-point dose–response, duplicate
HDAC5 = HDAC5 (Homo sapiens, UniProt Q9UQL6); test: HDAC activity assay; details: read-out: IC50 HDAC5; 10-point dose–response, duplicate

Molecule CC(/C=C/C(=O)NO)=C\[C@@H](C)C(=O)c1ccc(N(C)C)cc1 [TSA, trichostatic acid] has an IC50 (HDAC9) of 5.2 µM and an IC50 (HDAC5) of 1.18 µM.
